Values of other authors as cited in patent US7417024B2, “Template-fixed peptidomimetics as inhibitors of serine proteases” (Polyphor Ltd., priority 2001, dated 2008).

Protein sequences, listed by entry. Tags and fused reporters are not part of them. Residues count along the entry.
UniProt P08311, 21-244 limits assumed: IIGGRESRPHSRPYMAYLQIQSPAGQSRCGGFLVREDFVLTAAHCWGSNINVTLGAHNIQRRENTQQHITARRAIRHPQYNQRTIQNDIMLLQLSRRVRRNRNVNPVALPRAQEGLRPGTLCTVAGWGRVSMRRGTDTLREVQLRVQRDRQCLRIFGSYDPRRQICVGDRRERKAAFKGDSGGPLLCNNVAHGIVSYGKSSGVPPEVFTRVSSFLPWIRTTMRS

Molecular target: cathepsin G (Homo sapiens, UniProt P08311)
Settings: no value given; cited from earlier work

CC[C@H](C)[C@@H]1NC(=O)[C@@H]2CCCN2C(=O)[C@@H]2CCCN2C(=O)[C@H]([C@@H](C)CC)NC(=O)[C@H](CO)NC(=O)[C@H](CCCCN)NC(=O)[C@H]([C@@H](C)O)NC(=O)[C@@H]2CSSC[C@H](NC1=O)C(=O)N[C@@H](Cc1ccccc1)C(=O)N1CCC[C@H]1C(=O)N[C@@H](CC(=O)O)C(=O)NCC(=O)N[C@@H](CCCNC(=N)N)C(=O)N2
inhibition of cathepsin G: inhibited
